Results on one compound are retold here after patent US8173378B2, “Methods of using an alpha-1-adrenergic receptor having altered ligand affinity” (Pharmacome LLC, priority 2007, dated 2012).

Assay [1] concerns the target T1, α1L-adrenergic receptors in human prostate tissue segments (Homo sapiens, UniProt P35348).
T1 construct: from tissue; host or cells: human prostate tissue segments
T1 sequence (P35348 1-466): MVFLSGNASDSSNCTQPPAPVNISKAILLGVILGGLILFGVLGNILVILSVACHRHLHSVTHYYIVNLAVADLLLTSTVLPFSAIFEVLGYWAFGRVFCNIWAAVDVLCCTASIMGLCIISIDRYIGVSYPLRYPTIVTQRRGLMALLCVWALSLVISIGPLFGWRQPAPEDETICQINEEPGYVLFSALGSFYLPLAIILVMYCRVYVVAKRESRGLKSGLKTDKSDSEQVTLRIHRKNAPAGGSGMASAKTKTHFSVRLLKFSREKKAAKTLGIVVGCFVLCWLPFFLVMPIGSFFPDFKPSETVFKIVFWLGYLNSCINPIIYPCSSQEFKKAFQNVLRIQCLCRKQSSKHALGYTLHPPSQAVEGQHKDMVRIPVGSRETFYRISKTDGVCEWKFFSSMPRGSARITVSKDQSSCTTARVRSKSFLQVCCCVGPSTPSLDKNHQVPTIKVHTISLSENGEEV
As to the kind of experiment: [3H]-silodosin binding in human prostate tissue segments. Conditions: read-out: −log Ki (pKi) at [3H]-silodosin binding sites (converted).

The target of a further assay is T2, α1A-adrenergic receptor (Homo sapiens, UniProt P35348).
T2 sequence (P35348 1-466): T1 sequence (P35348 1-466)
As to conditions: α1A subtype; cited from earlier work.

The target of another assay is α1L-adrenergic receptor. As to conditions: α1L subtype; cited from earlier work.
In assay [2] the target is T3, α1A-adrenergic receptor in α1A cells (Homo sapiens, UniProt P35348).
T3 sequence (P35348 1-466): T1 sequence (P35348 1-466)
As to the kind of experiment: Whole-cell [3H]-silodosin binding in α1A cells (CHO-K1 expressing only ADRA1A).

In assay [3] the target is T4, α1L-adrenergic receptor (α1A-adrenergic receptor / CRELD1α complex) in α1L cells (Homo sapiens, UniProt P35348).
T4 sequence (P35348 1-466): T1 sequence (P35348 1-466)
T4 sequence (Q96HD1 30-420 partner): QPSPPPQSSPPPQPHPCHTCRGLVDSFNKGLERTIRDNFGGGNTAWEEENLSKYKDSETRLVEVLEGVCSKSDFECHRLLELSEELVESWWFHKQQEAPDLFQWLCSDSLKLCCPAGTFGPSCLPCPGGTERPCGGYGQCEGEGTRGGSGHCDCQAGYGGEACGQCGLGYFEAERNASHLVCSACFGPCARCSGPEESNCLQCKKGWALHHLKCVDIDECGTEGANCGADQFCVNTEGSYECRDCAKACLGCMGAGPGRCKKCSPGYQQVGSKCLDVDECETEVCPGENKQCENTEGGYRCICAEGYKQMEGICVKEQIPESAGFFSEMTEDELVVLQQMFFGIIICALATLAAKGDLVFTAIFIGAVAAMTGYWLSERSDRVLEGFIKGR
As to the kind of experiment: Whole-cell [3H]-silodosin binding in α1L cells (CHO-K1 coexpressing ADRA1A and CRELD1α).

Bounds are passed on as bounds.

With `COc1ccccc1N1CCN(CCN2C(=O)CC3(CCCC3)CC2=O)CC1.Cl.Cl` [BMY 7378, 8-[2-[4-(2-methoxyphenyl)-1-piperazinyl]ethyl]8-azaspiro[4,5]decane7,9-dione dihydrochloride], the Ki was 1260 nM in assay [1], 316 nM in assay [2] and > 1000 nM in assay [3]. Moreover, the “Affinity (pKb)” value on α1A-adrenergic receptor and on α1L-adrenergic receptor was 6.9-5.6 in each case.

One may read the Ki as the equilibrium dissociation constant of an inhibitor or competing ligand from its target.
